Tested on: murine macrophages J744A.1
Experiment: alamarBlue cytotoxicity on murine macrophages
Format: cell-based
Conditions: read-out: Macrophages J744A.1 CC50; 24 h of incubation

Which CC50 does the source give for C=C1CC[C@@H](O)[C@]2(C)CC[C@H]3C(=C)C(=O)O[C@@H]3[C@@H]12 [Reynosin (13), reynosin] here?
Its CC50 is 77.9 µM.

Which CC50 does the source give for C=C1C(=O)O[C@@H]2[C@H]3C(C)=CC[C@@H](O)[C@]3(C)CC[C@@H]12 [Santamarine (12), santamarine] here?
Its CC50 is 77.1 µM.

Source: article PMC8625207, “Antikinetoplastid Activity of Sesquiterpenes Isolated from the Zoanthid Palythoa aff. clavata” (Pharmaceuticals, 2021)
